Molecules are shown by their SMILES.

The assay has as its target Acetylcholinesterase (Electrophorus electricus, UniProt O42275). As to conditions: pH 8.

In turn, `CC1(c2cccc([N+](=O)[O-])c2)NC(=O)c2cc([N+](=O)[O-])cc([N+](=O)[O-])c2N1` (stereo unspecified) came in with an IC50 of 6.2 µM. That is a single-digit micromolar value.

For orientation: IC50 means the concentration that inhibits the measured activity by half. Low readings indicate higher potency, high ones lower potency.

For the origin of these results see BindingDB's records for 28126287 (University of Sargodha, 2017).
